# scFv variants of Ab-95 (light chain) against a SARS-CoV-2 spike peptide

Antigen: PDVDLGDISGINAS, a 14-residue peptide of the SARS-CoV-2 spike HR2 region.

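The starting antibody came from a phage panning campaign against this peptide. AAYL52 was designed without a model: most single CDR substitutions and a random sample of double and triple ones. In AlphaSeq, yeast of one mating type display the scFv and yeast of the other type display the target. Pairs that bind mate more often; barcode pairs of the diploids are counted by sequencing. Read counts were normalised to the haploid input and turned into Kd by a linear fit to BCL2-family pairs of known affinity, for each replicate. Each pool was mated in three replicate cultures.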

The variants keep the heavy chain, the linker and the frameworks of Ab-95 (scFv order VH, a (GGGGS)3 linker, VL).
VH: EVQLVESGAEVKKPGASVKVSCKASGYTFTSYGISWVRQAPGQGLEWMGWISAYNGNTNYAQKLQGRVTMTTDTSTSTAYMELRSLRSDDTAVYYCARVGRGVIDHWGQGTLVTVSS
VL: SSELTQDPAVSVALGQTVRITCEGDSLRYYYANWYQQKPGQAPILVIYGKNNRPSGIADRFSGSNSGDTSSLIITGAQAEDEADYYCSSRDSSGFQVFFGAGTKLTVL

Each variant is given by its three light chain CDRs, as the data file delimits them; those of the parent are EGDSLRYYYAN, GKNNRPS, SSRDSSGFQVF.
Kd is apparent (estimated from mating counts) and averaged on the log scale over replicates with a signal. Smaller is tighter.
A pair that was not seen in any replicate is written "not detected"; this usually means weak binding, but a binder can also be missed.
As a blank, each scFv also met three strains without target: over library AAYL52, 28% of these pairings were detected, typically at 8.2 µM and seldom below 800 nM.

CDR-L1 | CDR-L2 | CDR-L3 | Kd (apparent) | replicates with signal
EGDYLRYYYAN | GKNMRPS | SSCDSSGFQVF | 130 nM | 1 of 3
EGPSVRYYYAN | GKNNRPS | SSRDSSGFRVF | 7.6 µM | 1 of 3
LGDSLRYYYAN | GKNNRPS | SDRDSSGKQVF | 38 µM | 1 of 3
EGDSLRGYEAQ | GKNNRPS | SSRDSSGFQVF | 740 nM | 3 of 3
EGDSLRYQYAI | GKNNRPA | SSRDSSGFQVF | 32 µM | 1 of 3
EGDSLRYYYAN | GKNNRMF | SSIDSSGFQVF | 4.6 µM | 2 of 3
EGISLRYLYAN | GKNNRPS | SSRDSVGFQVF | 5.6 µM | 1 of 3
EGDSLRYYTAN | GKCNRPS | SSRTSSGFQVF | 2.2 µM | 2 of 3
WGDSLRYYYAN | GKNNRPS | SSRSSSGKQVF | 1.8 µM | 3 of 3
EGDSLRYYYAN | GRFNTPS | SSRDSSGFQVF | 59 µM | 2 of 3
EGDSLRQYYAN | GKNNRPS | SSRKSSGFQVF | not detected | 0 of 3
ENDSLRYYNAN | IKNNRPS | SSRDSSGFQVF | 47 µM | 1 of 3
EGDSLRKYYAN | WKNARPS | SSRDSSGFQVF | 2.9 µM | 1 of 3
EGDSLRYYYAN | GKNYSPS | SSRDSSGFQVF | 14 µM | 1 of 3
EGFSLRYYYAN | KKNNRPH | SSRDSSGFQVF | 46 µM | 2 of 3
EGDSSRYYYAN | GKNNRPS | SSRDSSGYQVI | 8.5 µM | 1 of 3
EGDSLARYSAN | GKNNRPS | SSRDSSGFQVF | 86 nM | 3 of 3
EGDKLRYYYAN | GKNNCPL | SSRDSSGFQVF | 11 µM | 2 of 3
EGDSLRYYYAN | GKNNRPS | SSSQSSGFQYF | 4.5 µM | 2 of 3
EMDSLRYYYIN | GKNNRPS | SSRDSSGFQFF | 17 µM | 2 of 3
EGAELRYYYAN | GKNNRPS | SSRDSSGYQVF | 3.2 µM | 3 of 3
EGDSLWYYTAN | GKNNRPS | SSRDSSGFQVF | 220 nM | 3 of 3
EGDILRYYYAN | GKNNRPQ | SSRDISGFQVF | 8.8 µM | 3 of 3
EGDSLFYYIAN | GKNNRPA | SSRDSSGFQVF | 3.5 µM | 3 of 3
EGDSLRYEYAN | GCNNRPT | SSRDSSGFQVF | 36 µM | 1 of 3
EGDSNRYYFFN | GKNNRPS | SSRDSSGFQVF | 31 µM | 2 of 3
EGDSLHYYLAN | GKNNRPS | SSRDSSGFHVF | 260 nM | 3 of 3
EVDSLRYYYAN | GKNNRPS | FSRDSSGFQVE | 5.3 µM | 3 of 3
SGDSLRYYYAN | GKNNRFS | SSGDSSGFQVF | 230 nM | 3 of 3
EADSLRYPYAN | GKNNRPS | SSRDSSGFRVF | 94 nM | 3 of 3
EGKSLRYYYAN | GKNNMPS | NSRDSSGFQVF | 640 µM | 1 of 3
EGDSTRYYYAN | IKNNRPS | SSRDSSGQQVF | 360 µM | 1 of 3
EGDSLRYYYAN | GKNNRPS | ISRDASGFQRF | 7.7 µM | 2 of 3
EGDSLRYYYAK | GKNNRPS | SSRDISGFQVP | 68 µM | 1 of 3
EGDSLRYYYAC | GKNNRPS | SSRDSSGFCAF | 420 µM | 1 of 3
HGDSLRYYYAN | GKNNRPS | SSEQSSGFQVF | 190 nM | 3 of 3
EGDSLRYYYAN | GINNRPS | SSRDSSGWQRF | 2.9 µM | 3 of 3
EGDSLRYYHAN | GKNNRPS | SNRDSSCFQVF | 120 nM | 3 of 3
DGDELRYYYAN | GKNNRPS | SSRDSSGFQGF | 93 nM | 3 of 3
QGDKLRYYYAN | GKNNRIS | SSRDSSGFQVF | not detected | 0 of 3
EGDSLRYYYAN | GKNVRPS | SSRDSSRFQVF | 580 nM | 3 of 3
TGDSLDYYRAN | GKNNRPS | SSRDSSGFQVF | 130 nM | 3 of 3
EGDSLRYYYAN | GKNARPS | SYRASSGFQVF | 630 nM | 3 of 3
EGDSLRYYYAN | GKNNDPS | SSRDSRIFQVF | 7.5 µM | 3 of 3
EGDSLRYYYAN | GKNGRPS | HSRDSSGCQVF | 9.9 µM | 1 of 3
EGDSLSYYYAS | GKNNRPR | SSRDSSGFQVF | 7.4 µM | 3 of 3
EYDSLRYYYAN | GKNNRPS | SSRSSSRFQVF | 4.7 µM | 1 of 3
EGDSLRHYYAN | GKNNRTS | SSRDSSGFEVF | 300 nM | 3 of 3
EGDSLRAYYAN | GKNNRPS | SSRDSSGFQVS | 140 nM | 3 of 3
EGDSLRYYYAN | GKNNRSS | SSRDSSYFQVF | 3.6 µM | 3 of 3
EGDSLRYYYAN | GKHNRPW | SSRDSSGFQVF | 1.4 µM | 3 of 3
EGDSLRYQYAN | GKNNMPS | SSRDQSGFQVF | 11 nM | 3 of 3
EGDSLRYYYTN | GKNNRPD | SSRDSDGFQVF | 4.6 µM | 3 of 3
EGDSPRYYYAN | GPNNRPS | SSRDSKGFQVF | 4.7 µM | 3 of 3
EGDSLRWYYAY | GKNNRPS | SSRDSSCFQVF | 3.3 µM | 3 of 3
EGDSLRYYRAN | GKNNRKS | SSRDSSGFFVF | 12 µM | 2 of 3
EGDLLRYYVAN | GKNNRPS | SSRDSSGVQVF | not detected | 0 of 3
EGDSLPYYYKN | GKNNRPS | SERDSSGFQVF | 140 nM | 3 of 3

For reference, the parent read 200 nM as the reference entry and 180 nM as a member of this library.

Values reported by Engelhart et al. 2022, doi:10.1038/s41597-022-01779-4 (FLAb copy).